Laboratory results: BindingDB's records for 6492073

By UniProt entry, the sequences of proteins in these tests, tags left out. Residues count along the entry.
UniProt P22303, 32-614 limits assumed: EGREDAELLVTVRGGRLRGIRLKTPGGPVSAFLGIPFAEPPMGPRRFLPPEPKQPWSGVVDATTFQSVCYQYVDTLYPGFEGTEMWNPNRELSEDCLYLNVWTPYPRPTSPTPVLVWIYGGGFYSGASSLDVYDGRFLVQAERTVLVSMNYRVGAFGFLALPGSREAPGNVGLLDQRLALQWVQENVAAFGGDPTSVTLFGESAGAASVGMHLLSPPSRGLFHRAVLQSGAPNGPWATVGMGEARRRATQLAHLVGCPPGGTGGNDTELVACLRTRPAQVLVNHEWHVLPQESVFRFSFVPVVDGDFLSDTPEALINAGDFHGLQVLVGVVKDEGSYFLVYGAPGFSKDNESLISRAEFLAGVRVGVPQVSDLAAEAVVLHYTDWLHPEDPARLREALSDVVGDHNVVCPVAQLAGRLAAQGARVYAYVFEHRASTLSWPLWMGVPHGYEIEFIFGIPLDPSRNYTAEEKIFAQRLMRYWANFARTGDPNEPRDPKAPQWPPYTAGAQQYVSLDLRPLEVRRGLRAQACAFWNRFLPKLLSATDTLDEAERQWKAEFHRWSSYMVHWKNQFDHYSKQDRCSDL

Target: Acetylcholinesterase (Homo sapiens, UniProt P22303)
Assay: ChEBML_88385
From the text: Concentration of the HOX that inhibits 50% of AChE (Acetylcholinesterase) activity

SMILES: COC[n+]1ccn(C)c1CN=O
- IC50: 290 µM
